Results from ChEMBL document CHEMBL5126521, “Analgesic Opioid Ligand Discovery Based on Nonmorphinan Scaffolds Derived from Natural Sources” (J Med Chem, 2022).

The chains behind the UniProt entries cited, without tags or fusion partners. Where a name states a change or a piece, a line headed by the entry shows the natural chain unless it says otherwise.
UniProt P33534: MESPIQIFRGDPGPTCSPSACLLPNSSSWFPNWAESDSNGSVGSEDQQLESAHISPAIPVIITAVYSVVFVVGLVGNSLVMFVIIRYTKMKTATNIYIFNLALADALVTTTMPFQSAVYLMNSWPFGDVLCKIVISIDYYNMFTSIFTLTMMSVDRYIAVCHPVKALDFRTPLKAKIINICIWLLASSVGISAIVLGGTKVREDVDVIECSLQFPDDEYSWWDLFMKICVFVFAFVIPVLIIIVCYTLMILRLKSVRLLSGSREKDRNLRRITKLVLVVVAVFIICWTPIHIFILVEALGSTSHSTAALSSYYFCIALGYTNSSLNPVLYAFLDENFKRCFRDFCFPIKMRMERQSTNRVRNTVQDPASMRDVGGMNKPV

Key:
[1] = target: T1, Kappa-type opioid receptor (Mus musculus, UniProt P33534); assay: Agonist activity at C57BL6/J mouse brain KOP by calcium mobilization assay; assay type: functional, tissue-based
[2] = target: T1, Kappa-type opioid receptor; assay: Displacement of [3H]U69593 from C57BL6/J mouse brain KOP; assay type: tissue-based
[3] = target: T1, Kappa-type opioid receptor; assay: Agonist activity at C57BL6/J mouse brain KOP; assay type: functional, tissue-based

COC(=O)[C@@H]1C[C@H](OC(C)=O)C(=O)[C@H]2[C@@]1(C)CC[C@H]1C(=O)O[C@H](c3ccoc3)C[C@]21C [SALVINORIN A]
EC50 [1]: 104 nM | Ki [2]: 18.7 nM | EC50 [3]: 6.9 nM
